# Results as given in PubChem BioAssay AID770 (SRMLSC, 2007).
# Only a part is listed here, and it is no random draw. The source made the active and inactive calls.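 Rule for the calls: active = growth inhibition above 90% in viable cell count at a single dose; inactive = growth inhibition below 90%.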
# Assay: HT29 colon tumor cell growth inhibition, primary screen, imaging, high content imaging, 24 h, CellTiter-Glo (AID 770)
# Details: HT29 cell number by imaging, at 10 µM, stronger effect = higher value
row,Compound,growth inhibition
1,Cc1cccc(OCC(=O)OC2CN3CCC2CC3)c1 (configuration not stated),inactive: -17.9%
2,Cc1ccc(OCC(=O)OC2CN3CCC2CC3)cc1 (configuration not stated),inactive: -14.4%
